Compound activity deposited in PubChem by Broad Institute.
ERp5 inh = inhibitors of human ERp5; 350,000 tested, 0.05% active; inhibition, % at 9.99 µM; ERp5 insulin aggregation, absorbance 650 nm, 90 min; Q15084;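 active = mean replicate inhibition above about 25%, with every replicate also reaching it, limit read from the data, passing the limit was not always enough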
SIRT5 inh = blocks human SIRT5 desuccinylation of peptide; Purified SirT5, succinyl-peptide AMC, trypsin-coupled fluorescence; inhibition, % at 15 µM; 330,000 tested, 1.1% active; in the data active = inhibition above about 15%
PDI turbidity = inhibitors of human protein disulfide isomerase; P07237; PDI insulin aggregation turbidity, A650, 90 min; inhibition, % at 10 µM; 350,000 tested, 0.052% active; AID 588391;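 active = mean inhibition across replicates of 30% or more, whatever share of single replicates reach that level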
S100A4 MyoIIA = S100A4-myosin IIA interaction inhibition | S100A4/TAMRA-MyoIIA peptide fluorescence polarization | inhibition, % at 10.7 µM | P26447 | 360,000 tested, 0.14% active;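 active = mean inhibition of at least 70% across replicates, with every replicate also reaching that level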
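Test system: S100A4 monomer protein. Medium: HEPES buffer with Ca2+, pH 7.2. Reagent: fluorescent myosin IIA peptide, 5 nM. Compound dosing: single-point compound testing. Timing: 5 min between mix addition and reading. Benchmarks: DMSO neutral and TFP positive wells.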
FGF22 binding = shifts melting point of recombinant human FGF22 | Q9HCT0 | activity (Tm shift, normalised), % at 9.99 µM | recombinant FGF22 thermal shift, SYPRO orange fluorescence; percent of sucrose octasulfate shift, DMSO zero | 340,000 tested, 1.5% active;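 active = mean Tm shift, scaled 0 neutral to 100 positive control, at about 1.3% or above, every replicate too, limit read from the data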
UUG fidelity = alters start codon recognition fidelity in yeast | S. cerevisiae UUG-firefly luciferase reporter, luminescence/redox ratio | activity score, % at 18.7 µM | 350,000 compounds, 0.13% hits | AID 602363;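 active = replicate mean at a twofold rise or more, about +100% in these data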;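 note: firefly luciferase made from a UUG start codon reports start codon fidelity; reporter light over untreated wells divided by growth signal over untreated wells; some hits fall short of that in this replicate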
Hits are given with their value; i = inactive; nt = no result given. Most compounds without a hit are left out; they make up all but 2.2% or so of the library.

SMILES | ERp5 inh | SIRT5 inh | PDI turbidity | S100A4 MyoIIA | FGF22 binding | UUG fidelity
CCS(=O)(=O)c1nc(S(=O)(=O)c2ccc(Cl)cc2)c(NCc2ccccn2)s1 | i | i | i | i | 44 | nt
CCS(=O)(=O)c1nc(S(=O)(=O)c2ccc(Cl)cc2)c(NCCCN2CCOCC2)s1 | i | i | i | i | i | i
COCCNC(=O)C[C@H]1CC[C@H](NC(=O)NC2CCCC2)[C@@H](CO)O1 | i | i | nt | i | i | i
COc1ccccc1C(=O)NCC1(c2ccccc2)CCCC1 | i | i | i | i | 43 | nt
COc1ccc(S(=O)(=O)/N=C2/NC(=O)/C(=C/c3ccco3)S2)cc1 | i | 16 | i | i | 1.4 | nt
O=C(CCN1C(=O)C2C3C=CC(C3)C2C1=O)N1CCCCC1 (stereo not drawn) | i | i | i | i | 43 | nt
COc1ccc(Cl)cc1C(=O)NNC(=O)CSc1nnc2ccccn12 | i | i | i | i | 44 | i
CC(C)CCNC(=O)NC(=O)CSc1nnc2ccccn12 | nt | nt | i | nt | nt | i
CC(Sc1nnc2ccccn12)C(=O)Nc1ccc(Cl)cn1 (stereo not drawn) | nt | nt | i | nt | nt | i
CC(Sc1nnc2ccccn12)C(N)=O (stereo not drawn) | i | i | i | i | 43 | i
CC(C)CNC(=O)CSc1nnc2ccccn12 | i | i | i | i | 43 | nt
CC(=O)N1CC2(C1)[C@H](c1ccccc1)[C@H](CO)N2S(=O)(=O)c1ccccc1 | i | i | nt | i | i | nt
CCCNC(=O)Nc1ccc2c(c1)C(=O)N(C)C[C@@H](OC)[C@H](C)CN(C(=O)C1CCC1)[C@@H](C)CO2 | i | i | nt | i | i | i
COc1cccc(-c2cnc3c(c2)C(=O)N([C@@H](C)CO)C[C@H](C)[C@H](CN(C)Cc2ccc(F)cc2)O3)c1 | i | i | nt | i | i | i
COC(=O)C[C@@H]1C[C@@H]2c3cc(NC(=O)CN(C)C)ccc3O[C@@H]2[C@H](CO)O1 | i | i | nt | i | i | nt
CC(=O)OCC(=O)Nc1ccc(Br)c(C)c1 | i | i | i | i | 43 | nt
COCC(=O)Nc1ccc(Br)c(C)c1 | i | i | i | i | i | i
C=CCn1c(O)c(/C=C2\C=NN=C2c2ccccc2)sc1=S | i | 18 | i | i | i | nt
CCN1C(=O)C2C(c3ccccc3F)NC(Cc3ccc(O)cc3)(C(=O)OC)C2C1=O (stereo not drawn) | nt | nt | 53 | nt | nt | i
CN1CCC(=NNC(=O)COc2ccc(Cl)cc2)CC1 | i | 21 | i | i | i | nt
CCOC(=O)N1CCN(C(=O)C(=O)NNC(=O)COc2ccc(Cl)cc2)CC1 | i | i | i | i | 44 | nt
CCOC(=O)N1CCN(C(=O)C(=O)NNC(=O)COc2ccc(Cl)c(C)c2)CC1 | nt | nt | i | nt | nt | i
COc1ccccc1CNC(=O)C[C@H]1CC[C@H]2[C@@H](COc3ccc(NC(=O)Nc4ccc(F)c(F)c4)cc3C(=O)N2C)O1 | i | i | nt | i | i | i
C/C=C/c1ccc([C@@H]2[C@H](CO)N(C(C)=O)C23CN(C(=O)c2ccc(F)cc2)C3)cc1 | i | i | nt | i | i | nt
COCCNC(=O)[C@H]1[C@H](CO)[C@H]2Cn3c(cccc3=O)[C@@H]1N2Cc1cc(F)ccc1F | i | i | nt | i | i | nt
SMILES | ERp5 inh | SIRT5 inh | PDI turbidity | S100A4 MyoIIA | FGF22 binding | UUG fidelity
O=C(NCC[C@@H]1CC[C@H](NS(=O)(=O)Cc2ccccc2)[C@@H](CO)O1)C1CCCC1 | i | i | nt | i | i | i
O=C(c1cc2cc(Cl)ccc2[nH]1)N1CCN(c2ccc(F)cc2)CC1 | i | i | i | i | i | i
COc1ccc(N2CCN(C(=O)c3cc4cc(Cl)ccc4[nH]3)CC2)cc1 | i | 18 | i | i | i | i
C[C@@H]1O[C@@H](O[C@@H]2C(=O)c3c(O)cc(O)cc3O[C@H]2c2ccc(O)c(O)c2)[C@H](O)[C@H](O)[C@H]1O | i | nt | 44 | i | i | i
O=C1c2c(O)cc(O)cc2O[C@H](c2ccc(O)c(O)c2)[C@H]1O | i | i | i | i | i | i
CC(C)OC(=O)C[N+](C)(C)CCN1C(=O)C2C(c3ccccc3)C=CC(c3ccccc3)C2C1=O (stereo not drawn) | i | 26 | i | i | i | nt
COC1=C/C(=C/c2c(N)n3nc(CC(=O)N4CCCC4)sc3nc2=O)C=CC1=O | i | 30 | i | i | i | i
CCOC1=C/C(=C/c2c(N)n3nc(CC(=O)N4CCCC4)sc3nc2=O)C=CC1=O | i | i | i | i | i | i
COC1=CC(=Cc2c(N)n3nc(CC(=O)N4CCCCC4)sc3nc2=O)C=C(OC)C1=O | i | 32 | i | i | i | i
COc1ccc(CN(C)C[C@H]2OCCCC[C@H](C)Oc3ccc(NC(=O)CCC(F)(F)F)cc3C(=O)N([C@H](C)CO)C[C@@H]2C)cc1 | i | i | nt | i | i | i
CSc1ccc(-c2nc(O)c3cnccn23)cc1 | i | i | i | i | i | i
Oc1nc(-c2ccc(Br)cc2)n2ccncc12 | i | i | i | i | 43 | i
C[C@H](CO)N1C[C@H](C)[C@H](CN(C)C(=O)NC2CCCCC2)Oc2ncc(C#Cc3cccc(F)c3)cc2C1=O | i | i | nt | i | i | nt
CCN(CC1CCCO1)C(=O)CCc1nnc(CCc2ccc(OC)cc2)o1 (stereo not drawn) | i | i | i | i | i | i
CCN(Cc1ccncc1)C(=O)CCc1nnc(CCc2ccc(OC)cc2)o1 | i | i | i | i | 44 | i
O=C(C[C@@H]1CC[C@H]2[C@@H](COC[C@@H](O)CN2Cc2ccc(C(F)(F)F)cc2)O1)N1CCc2ccccc2C1 | i | i | nt | i | i | nt
Cc1cccc(C)c1-n1cccc1/C=C1/C(=N)N2C(=NC1=O)SN=C2S(C)(=O)=O | i | i | i | i | 44 | nt
Cc1ccc(-n2cccc2/C=C2/C(=N)N3C(=NC2=O)SN=C3S(C)(=O)=O)cc1Cl | nt | nt | i | nt | nt | i
O=c1ccn(Cc2ccccc2)c2ccccc12 | i | 36 | i | i | i | i
COc1ccc(C#Cc2ccc([C@@H]3[C@H]4CN(S(=O)(=O)c5ccccc5)CCCCN4[C@H]3CO)cc2)cc1 | i | i | nt | i | i | i
O=S(=O)(c1ccccc1)N1CCCCN2[C@H](C1)[C@@H](c1ccc(C#CC3CCCC3)cc1)[C@@H]2CO | i | 15 | nt | i | i | i
COc1ccc(S(=O)(=O)N2CCCCN3[C@@H](CO)[C@H](c4ccc(C#CC(C)C)cc4)[C@@H]3C2)cc1 | i | 15 | nt | i | i | i
COc1ccc(C#Cc2ccc([C@H]3[C@H]4CN(S(=O)(=O)c5ccccc5)CCCCN4[C@H]3CO)cc2)cc1 | i | i | nt | 123 | i | i
C[C@@H]1CN([C@H](C)CO)C(=O)c2cc(C3=CCCC3)cnc2O[C@H]1CN(C)C(=O)Cc1ccncc1 | i | i | nt | i | i | i
C[C@@H]1CN([C@@H](C)CO)C(=O)c2cc(-c3cccc(C#N)c3)cnc2O[C@H]1CN(C)C(=O)C1CCC1 | i | i | nt | i | i | i
